We go through two proteins from publication PMC10199079.

A short description of the series: immunoblot with anti-pT234-PD-1 antibody. As to conditions: glycan lost. (In general: Immunoblotting shows a protein as a band on a membrane.)

B1: PD-1: 4NQ (N49Q/N58Q/N74Q/N116Q) (protein)
parent chain: MQIPQAPWPVVWAVLQLGWRPGWFLDSPDRPWNPPTFSPALLVVTEGDNATFTCSFSNTSESFVLNWYRMSPSNQTDKLAAFPEDRSQPGQDCRFRVTQLPNGRDFHMSVVRARRNDSGTYLCGAISLAPKAQIKESLRAELRVTERRAEVPTAHPSPSPRPAGQFQTLVVGVVGGLLGSLVLLVWVLAVICSRAARGTIGARRTGQPLKEDPSAVPVFSVDYGELDFQWREKTPEPPVPCVPEQTEYATIVFPSGMGTSSPARRGSADGPRSAQPLRPEDGHCSWPL
Take B1: for the setting “control: wild type”, the “other: phosphorylation at T234” value is on record as “no change”.

B2: PD-1: tunicamycin (protein)
parent chain: MQIPQAPWPVVWAVLQLGWRPGWFLDSPDRPWNPPTFSPALLVVTEGDNATFTCSFSNTSESFVLNWYRMSPSNQTDKLAAFPEDRSQPGQDCRFRVTQLPNGRDFHMSVVRARRNDSGTYLCGAISLAPKAQIKESLRAELRVTERRAEVPTAHPSPSPRPAGQFQTLVVGVVGGLLGSLVLLVWVLAVICSRAARGTIGARRTGQPLKEDPSAVPVFSVDYGELDFQWREKTPEPPVPCVPEQTEYATIVFPSGMGTSSPARRGSADGPRSAQPLRPEDGHCSWPL
Take B2: the “other: phosphorylation at T234” value (control: untreated) is “no change”.
